# This is a selection; strong and weak results do not stand in their true shares. Active and inactive are the calls of the source.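 How the source made its calls: active means inhibition of the ligand-induced calcium signal above about 50% at the single tested concentration (limit read from the data); inactive means the rest.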
# Assay: blockers of CRF-evoked CRF-R2/CRF-BP calcium response – cell-based, HEK293, calcium dye fluorescence, uHTS, primary screen (AID 588475)
# Conditions: CRF-induced calcium fluorescence, at 11.8 µM, hits give high values
row,SMILES,inhibition
1,CSc1ccc(C(=O)NCC2(N3CCOCC3)CCCCC2)cc1,inactive: -7.58%
2,O=C(NCC1(N2CCCCC2)CCCCC1)c1cccc([N+](=O)[O-])c1,inactive: 5.82%
3,CCN1CCC(Nc2ccc(Cl)cc2)CC1,inactive: 3.5%
4,N#CC1(Nc2ccccc2)CCN(CCc2ccccc2)CC1,inactive: -57%
5,O=C(NCC1(N2CCCCC2)CCCCC1)c1ccc(OC(F)F)cc1,inactive: -5.17%
6,COc1ccc(NC2CCN(C(=O)OC(C)(C)C)CC2)cc1,inactive: 6.9%
7,CC(C)c1ccc(C(=O)NCC2(N3CCOCC3)CCCCC2)cc1,inactive: -1.94%
8,CN1CCN(CCOC(=O)C(O)(c2ccccc2)c2ccccc2)CC1,inactive: 1.15%
9,O=C(NCC1(N2CCOCC2)CCCCC1)c1cc(=O)[nH]c2ccccc12,inactive: 16.9%
10,COc1cc(C(=O)NCC2(N3CCCCC3)CCCCC2)ccc1OC(F)F,inactive: -2.55%
11,O=C(NCC1(N2CCCCC2)CCCCC1)c1cccc(C(F)(F)F)c1,inactive: -18.3%
12,COc1cc(OC)c(C(=O)NCC2(N(C)C)CCCCC2)cc1OC,inactive: 0.07%
13,O=C(NCC1(N2CCOCC2)CCCCC1)c1cc(F)c(F)cc1Cl,inactive: 4.59%
14,COc1ccc(CN(CCCl)CCCl)cc1Cl,inactive: 37.8%
15,CN(C)c1cccc(C(=O)NCC2(N3CCCCC3)CCCCC2)c1,inactive: 2.06%
16,CC(C)c1ccc(NC2CCN(C(=O)OC(C)(C)C)CC2)cc1,inactive: -9.72%
17,Cc1ccc(C(=O)NCC2(N(C)C)CCCCC2)o1,inactive: 2.72%
18,CCCOc1ccc(C(=O)NCC2(N(C)C)CCCCC2)cc1OC,inactive: 17%
19,O=C(NCC1(N2CCCCC2)CCCCC1)c1cncc(Br)c1,inactive: -1.63%
20,CN1CCC(Nc2cccc(F)c2)CC1,inactive: -15%
21,CSc1ccccc1C(=O)NCC1(N2CCCCC2)CCCCC1,inactive: 9.99%
22,Cc1cccc(NC2(C#N)CCN(Cc3ccccc3)CC2)c1,inactive: -0.07%
23,O=C(NCC1(N2CCCCC2)CCCCC1)c1ccc(=O)[nH]c1,inactive: 11.2%
24,O=C(NCC1(N2CCCCC2)CCCCC1)c1cccs1,inactive: -2.99%
25,COc1ccc(C(=O)NCC2(N3CCCCC3)CCCCC2)cc1,inactive: 5.46%
26,COc1ccc(C(=O)NCC2(N3CCCCC3)CCCCC2)c(OC)c1OC,inactive: -14.6%

row,SMILES,inhibition
1,CC(C)(C)OC(=O)N1CCC(N(C(=O)c2ccccc2)c2ccc(F)cc2)CC1,inactive: -5.67%
2,CCOC(=O)N1CCC(Nc2ccc(OC)cc2)CC1,inactive: -1.47%
3,O=C(OC1CN2CCC1CC2)C1c2ccccc2Oc2ccccc21 (stereo unspecified),inactive: -24.4%
4,N#CC1(Nc2ccccc2)CCN(Cc2ccccc2)CC1,inactive: -3.06%
5,O=C(NCC1(N2CCCCC2)CCCCC1)c1ccc(Cl)s1,inactive: 1.69%
6,COc1ccc(Cl)cc1C(=O)NCC1(N2CCOCC2)CCCCC1,inactive: -17.7%
7,O=C(NCC1(N2CCOCC2)CCCCC1)c1cc2ccccc2o1,inactive: -7.66%
8,O=C(NCC1(N2CCCCC2)CCCCC1)c1ccc(Cl)nc1,inactive: 18.7%
9,Cc1cc(C)cc(N(C(=O)c2ccccc2)C2CCN(C(=O)OC(C)(C)C)CC2)c1,inactive: 2.11%
10,O=C(NCC1(N2CCCCC2)CCCCC1)c1ccc(F)cc1,inactive: -2.45%
11,CCCCOc1ccc(C(=O)NCC2(N3CCOCC3)CCCCC2)cc1,inactive: -3.34%
12,O=P1(N(CCCl)CCCl)SCCCS1,inactive: 19%
13,CCOC(=O)N1CCC(Nc2ccc(F)cc2)CC1,inactive: -2.92%
14,COc1ccc(NC2CCN(CCc3ccccc3)CC2)c(OC)c1,inactive: 16.5%
15,CCOc1ccc(C)cc1CN(CCCl)CCCl,inactive: 20.6%
16,O=C1CCN(Cc2ccccc2)CC1,inactive: -9.28%
17,COc1cc(C(=O)NCC2(N(C)C)CCCCC2)ccc1OC(F)F,inactive: 6.27%
18,CCOC(=O)N1CCC(Nc2cccc(C)c2)CC1,inactive: 2.59%
19,Cc1ccc(NC2(C#N)CCN(Cc3ccccc3)CC2)cc1,inactive: -9.12%
20,Cc1ccc(C(=O)NCC2(N3CCCCC3)CCCCC2)o1,inactive: 11.5%
21,Fc1ccccc1NC1CCN(Cc2ccccc2)CC1,inactive: 19.3%
22,COc1cc(OC)cc(C(=O)NCC2(N3CCCCC3)CCCCC2)c1,inactive: -0.86%
23,CC(=O)N(c1ccccc1)C1CCNCC1,inactive: 8.83%
24,O=C(NCC1(N2CCCCC2)CCCCC1)c1ccco1,inactive: 2.78%
25,Cn1c(=O)[nH]cc(N(CCCl)CCCl)c1=O,inactive: 27.3%
26,CN(C)c1ccc(C(=O)NCC2(N3CCCCC3)CCCCC2)cc1,inactive: -7.21%

row,SMILES,inhibition
1,Cc1ccccc1NC1(C#N)CCN(Cc2ccccc2)CC1,inactive: 12.6%
2,CCN1CCC(Nc2cccc(F)c2)CC1,inactive: 2.96%
3,CCCOc1ccc(C(=O)NCC2(N(C)C)CCCCC2)cc1,inactive: 3.09%
4,CC(C)(C)OC(=O)N1CCC(Nc2ccccc2)CC1,inactive: -1.5%
5,O=C(O)C1(Nc2ccccc2)CCN(Cc2ccccc2)CC1,inactive: 4.46%
6,CCOc1ncccc1C(=O)NCC1(N2CCOCC2)CCCCC1,inactive: -3.55%
7,CN1CCC(Nc2ccc(F)c(Cl)c2)CC1,inactive: 16.2%
8,CN1CCC(Nc2ccc(Cl)cc2)CC1,inactive: -10.3%
9,CCC(CO)(C(=O)OC1CN2CCC1CC2)c1ccccc1 (stereo unspecified),inactive: -4.15%
10,COc1cccc(C(=O)N(c2cc(C)cc(C)c2)C2CCN(C(=O)OC(C)(C)C)CC2)c1,inactive: 22.4%
11,COc1cc(OC)cc(C(=O)NCC2(N3CCOCC3)CCCCC2)c1,inactive: 4.97%
12,COc1ccc(C(=O)NCC2(N3CCOCC3)CCCCC2)cc1OC,inactive: 3.48%
13,O=C(NCC1(N2CCOCC2)CCCCC1)c1cc(Br)ccc1Cl,inactive: -0.31%
14,COc1cc(C(=O)NCC2(N3CCOCC3)CCCCC2)cc(OC)c1C,inactive: 0.46%
15,O=C(OC1CN2CCC1CC2)C1c2ccccc2C=Cc2ccccc21 (stereo unspecified),inactive: -16%
16,CCc1cc(C(=O)NCC2(N3CCCCC3)CCCCC2)sc1C,inactive: 12.9%
17,N/C(=N\O)c1c(N)no[n+]1[O-],inactive: -7.55%
18,CCOC(=O)N1CCC(Nc2ccc(C)cc2)CC1,inactive: 16.1%
19,CC(C)(C)OC(=O)N1CCC(N(C(=O)c2ccccc2)c2ccc(Cl)cc2)CC1,inactive: 6.35%
20,N#Cc1ccc(C(=O)NCC2(N3CCCCC3)CCCCC2)cc1,inactive: -4.84%
21,c1ccc(CN2CCC(Nc3ccccc3)CC2)cc1,inactive: -10.3%
22,CCCN1CCC(Nc2cc(OC)cc(OC)c2)CC1,inactive: 5.48%
23,Cc1cc(N(CCCl)CCCl)ccc1C=O,active: 62.1%
24,CN(C)C1(CNC(=O)c2cccc(C#N)c2)CCCCC1,inactive: 4.92%
